Assay results taken from patent EP4748842A1, “CAMPTOTHECIN COMPOUND, ANTIBODY DRUG CONJUGATE, AND PREPARATION METHOD THEREFOR AND USE THEREOF” (Shanghai Pharmaceuticals Holding Co., Ltd., priority 2023, dated 2025).

Tests used:
[1] = test system: NCI-N87; assay: Bystander effect, NCI-N87/MDA-MB-231 co-culture, flow cytometry (positive cells); type: cell-based, human; conditions: seeding ratio NCI-N87:MDA-MB-231 5:1, co-culture 7 days, proportion in total particles
Protocol: (§1) In this experiment, II-2 and T-Dxd were co-cultured with NCI-N87/MDA-MB-231 cells for 7 days, and flow cytometry was used to detect the proportion of NCI-N87 or MDA-MB-231 cells in the total particles, which reflects the ability of ADC to kill negative cells via the bystander effect.
(§2) NCI-N87 cells were cultured in one T175 flask, digested, resuspended in 8 mL for cell counting, centrifuged to remove the supernatant, and the cell density was adjusted. MDA-MB-231 (ATCC, HTB-26) cells were cultured in one T175 flask, digested, resuspended in 6 mL for cell counting, centrifuged to remove the supernatant, and the cell density was adjusted. Cell counting was performed with a cell counter: 20 µL of the cell suspension was aspirated, mixed with 20 µL of VisStain AOPI Staining Solution, and 20 µL of the mixture was taken for cell counting. The cells were seeded into 96-well cell culture plates (flat-bottomed) with RPMI1640 medium/10%FBS respectively, and 90 µL of each cell was added to each well, i.e., the cell ratio was 10000 cells/well of NCI-N87 + 2000 cells/well of MDA-MB-231 (5:1). The plate was tapped gently to mix, and then placed in a 37°C 5% CO2 cell incubator for incubation for 16 hours. […]

[2] = test system: MDA-MB-231; assay: Bystander effect, NCI-N87/MDA-MB-231 co-culture, flow cytometry (negative cells); type: cell-based; conditions: seeding ratio NCI-N87:MDA-MB-231 5:1, co-culture 7 days, proportion in total particles
Protocol: as §1, §2

T-Dxd was tested, and the “Percentage of positive and negative cells (%) NCI-N87” value [1] was 9.79% and the “Percentage of positive and negative cells (%) MDA-MB-231” value [2] was 4.74%.
